Measurements: PubChem BioAssay AID485317 (Broad Institute, 2010)
Only a part is listed here, and it is no random draw. Some salts and complexes are drawn in separate pieces, as the source files them; their charges need not balance. Active and inactive are the calls of the source.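 Rule for the calls: active = mean replicate inhibition above about 79%, with every replicate also reaching it (limit read from the data); inconclusive = only one of the two criteria met; inactive = mean below limit and not every replicate reaching it.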

Chains of the proteins cited; added tags and fusions are not shown.
UniProt P55789, whole entry: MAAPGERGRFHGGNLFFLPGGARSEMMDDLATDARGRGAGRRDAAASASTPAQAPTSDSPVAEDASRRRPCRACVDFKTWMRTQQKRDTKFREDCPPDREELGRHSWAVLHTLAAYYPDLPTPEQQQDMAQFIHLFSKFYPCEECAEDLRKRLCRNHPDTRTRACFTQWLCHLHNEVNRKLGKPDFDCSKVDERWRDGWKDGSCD

These molecules were tested against FAD-linked sulfhydryl oxidase ALR (Homo sapiens) (UniProt P55789) (assay: inhibitors of human ALR sulfhydryl oxidase, primary screen, biochemical, H2O2 detection, HRP-luminol luminescence, single point (AID 485317)). Conditions: purified ALR, DTT oxidation, stronger effect = higher value, concentration not given here.

Compound	inhibition
CCOC(=O)c1ccc(NP(C)(=O)Oc2cc(C)cc(C)c2)cc1 (stereo not drawn)	inactive: -13.1%
O=C(OC1CN2CCC1CC2)c1ccc(Cl)cc1 (stereo not drawn)	inactive: 7.68%
COc1cc(C(=O)NCC2(N3CCOCC3)CCCCC2)cc(Cl)c1OC(C)C	inactive: -0.575%
O=[As](O)(O)c1cccnc1	inactive: 0.27%
COc1ccccc1OP(C)(=O)Nc1cccc(Br)c1 (stereo not drawn)	inactive: -1.59%
CS(=O)(=O)c1ccc(Cl)c(NC(=O)COC(=O)C(O)(c2ccccc2)c2ccccc2)c1	inactive: 2.96%
CCOP(=O)(Nc1cccc2ccccc12)OCC	inactive: -24.3%
CP(=O)(Nc1cccc(Br)c1)Oc1ccccc1 (stereo not drawn)	inactive: -6.3%
Cc1cc(C)cc(OP(C)(=O)Nc2ccccn2)c1 (stereo not drawn)	inactive: -5%
Cc1ccc(NCCc2c([N+](=O)[O-])cc([N+](=O)[O-])cc2[N+](=O)[O-])cc1	inactive: -4.7%
Nc1cccc2c([As](=O)(O)O)cccc12	inactive: 17.2%
Cc1ccc(C)c(NP(C)(=O)Oc2ccccc2)c1 (stereo not drawn)	inactive: 1.12%
Clc1n[nH]nc1-c1nn[nH][15n]1	inactive: -13.1%
CC(C)(C)C(=O)NC(Sc1ncccn1)C(Cl)(Cl)Cl (stereo not drawn)	inactive: 6.74%
CCC1=CC2Cc3nc4ccc(Cl)cc4c(N)c3C(C1)C2 (stereo not drawn)	inactive: -12.5%
CCOP(=O)(NC(=NC(C)c1ccccc1)NC(C)c1ccccc1)OCC (stereo not drawn)	inactive: -10.6%
O=[N+]([O-])c1cc([N+](=O)[O-])c(-n2nnc3ccccc32)c([N+](=O)[O-])c1	inactive: -3.35%
CN(CCCl)Cc1cc(Cl)c(NC2=NCCN2)c(Cl)c1	inactive: 1.95%
CCOP(=O)(Nc1ccc(C)cn1)OCC	inactive: -5.54%
O=[As](O)(c1ccccc1Br)c1ccccc1Br	inactive: 7.94%
CC1(CBr)Cn2c(nc3ccccc3c2=O)S1 (stereo not drawn)	inactive: -12.1%
Cc1nc2ccc3ccccc3c2s1.O=[N+]([O-])c1cc([N+](=O)[O-])c(O)c([N+](=O)[O-])c1	inactive: -7.41%
O=[N+]([O-])c1cc([N+](=O)[O-])c(-c2cnn(-c3ccccc3)c2)c([N+](=O)[O-])c1	inactive: -63.8%
COc1ccccc1CNC(=O)COC(=O)C(O)(c1ccccc1)c1ccccc1	inactive: -4.38%
O=[N+]([O-])c1cc([N+](=O)[O-])c(Nc2nnnn2CCO)c([N+](=O)[O-])c1	inactive: -12.6%

Compound	inhibition
CCOC(=O)C(CC)C1=NC(C)(C)Cc2ccccc21.O=[N+]([O-])c1cc([N+](=O)[O-])c(O)c([N+](=O)[O-])c1 (stereo not drawn)	inactive: -2.91%
Cc1nn(-c2ccccc2)c2c1P(=O)(N1CCOCC1)N(C)C(c1ccccc1)=N2 (stereo not drawn)	inactive: -3.03%
CC1CCC(C(C)C)C(OP(=O)(Nc2ccccn2)c2ccccc2)C1 (stereo not drawn)	inactive: -6.5%
Cc1ccc(C(=O)OC2CN3CCC2CC3)cc1 (stereo not drawn)	inactive: -12.5%
COc1cc(C2NCCC3(OCCO3)C2(C)C)cc(OC)c1OC.O=[N+]([O-])c1cc([N+](=O)[O-])c(O)c([N+](=O)[O-])c1 (stereo not drawn)	inactive: -3.11%
CP(=O)(Nc1ccc(SC(F)(F)F)cc1)Oc1ccccc1 (stereo not drawn)	inactive: -3.49%
Nc1cccc([As](=O)(O)c2ccccc2)c1	inactive: -5.47%
CCCOc1ccc(NP(C)(=O)Oc2ccc(Cl)cc2)cc1 (stereo not drawn)	inactive: -1.93%
O=P1(Nc2ccc(Br)cn2)COc2ccccc2OC1	inactive: -16.4%
NS(=O)(=O)c1cccc(NC(=O)COC(=O)C(O)(c2ccccc2)c2ccccc2)c1	inactive: 0.06%
Cc1ccc(OCC(=O)OC2CN3CCC2CC3)cc1 (stereo not drawn)	inactive: -3.03%
O=[As](O)(c1cccs1)c1cccs1	inactive: -0.704%
COc1ccccc1OP(C)(=O)Nc1c(C)cccc1C (stereo not drawn)	inactive: -0.165%
CN1CCCCC1COC(=O)C1(O)c2ccccc2CCc2ccccc21 (stereo not drawn)	inactive: -11.5%
COc1ccc(NP(C)(=O)Oc2ccccc2OC)cc1 (stereo not drawn)	inactive: -5.25%
CN(C)CCOC(=O)C(O)(c1ccccc1)C1CCCCC1 (stereo not drawn)	inactive: -7.43%
O=P(Nc1nc2ccccc2s1)(c1ccccc1)c1ccccc1	inactive: 2.87%
C[C@H]1OP(=O)(Oc2ccccc2)[C@H](O)[C@H](O)[C@H]1N=[N+]=[N-] (stereo partly drawn)	inactive: -0.203%
O=P(Nc1ccccn1)(c1ccc(Br)cc1)c1ccc(Br)cc1	inactive: -8.85%
CN(C)C1(CNC(=O)c2ccc(Cl)c(S(N)(=O)=O)c2)CCCCC1	inactive: -9.38%
COc1ccc(OP(C)(=O)Nc2cccc(Br)c2)cc1 (stereo not drawn)	inactive: -2.52%
O=C(OC1CN2CCC1CC2)c1cccc(Cl)c1 (stereo not drawn)	inactive: 1.25%
Nc1ccc([As](=O)(O)c2ccc([N+](=O)[O-])cc2)cc1	inactive: -7.82%
C(Cc1nn[nH]n1)Cc1nn[nH]n1	inactive: 3.88%
O=[As](O)(c1ccccc1)c1ccc(O)cc1	inactive: -0.88%

Compound	inhibition
O=[N+]([O-])c1cc([N+](=O)[O-])c(NCC2CCS(=O)(=O)C2)c([N+](=O)[O-])c1 (stereo not drawn)	inactive: -23.6%
O=[N+]([O-])c1ccc(OP2(=O)COCCO2)cc1 (stereo not drawn)	inactive: -1.19%
c1nnnn1CCn1cnnn1	inactive: -5.43%
CCOP(C)(=S)SCC(=O)NC(C)(CC)C(=O)O (stereo not drawn)	inactive: -7.26%
CC(C)C(=O)NC(Sc1ccccc1)C(Cl)(Cl)Cl (stereo not drawn)	inactive: -0.988%
O=P(Nc1nccs1)(c1ccccc1)c1ccccc1	inactive: 8.18%
CP(=O)(Nc1ccc(SC(F)(F)F)cc1)Oc1ccc(F)cc1 (stereo not drawn)	inactive: -1.69%
Cc1ccccc1NP(C)(=O)Nc1ccccc1C	inactive: -2.34%
CP(=O)(Nc1ccc2c(c1)OCCO2)Oc1ccccc1 (stereo not drawn)	inactive: -25.3%
CC(C)(C)C(=O)NC(Sc1ccccc1)C(Cl)(Cl)Cl (stereo not drawn)	inactive: -15.7%
CC(C)c1ccc(OP(C)(=O)Nc2ccc(SC(F)(F)F)cc2)cc1 (stereo not drawn)	inactive: 0.653%
CP(=O)(Nc1ccccc1F)Oc1ccccc1 (stereo not drawn)	inactive: -10.3%
O=P1(Nc2nc3ccc(Cl)cc3s2)COc2ccccc2O1 (stereo not drawn)	inactive: 54.9%
COc1ccc2c(c1O)-c1c(O)c(OC)cc3c1[C@H](C2)[N+](C)(C)CC3.O=[N+]([O-])c1cc([N+](=O)[O-])c([O-])c([N+](=O)[O-])c1[O-]	inactive: 6.94%
CC(=O)Nc1ccc([As](=O)(O)O)c(O)c1	inactive: -1.24%
O=C(OCCN1CCN(CCOCc2ccccc2)CC1)C(O)(c1ccccc1)c1ccccc1	inactive: 0.375%
C[C@@H]1C=CCP(=O)(Oc2ccccc2)O1 (stereo partly drawn)	inactive: 4.95%
C[C@H]1OP(=O)(Oc2ccccc2)C[C@@H]2O[C@@H]21 (stereo partly drawn)	inactive: -0.433%
CC(=O)c1ccc(N2CC2c2ccncc2)cc1 (stereo not drawn)	inactive: -11.1%
O=C(OC1CN2CCC1CC2)c1ccc([N+](=O)[O-])cc1 (stereo not drawn)	inactive: -14.4%
COc1ccc(OP(C)(=O)Nc2ccc(SC(F)(F)F)cc2)cc1 (stereo not drawn)	inactive: -5.03%
CCOC(=O)c1ccc(NP(C)(=O)Oc2ccc(F)cc2)cc1 (stereo not drawn)	inactive: 1.83%
c1ccc(-c2nn[nH]n2)c(-c2nn[nH]n2)c1	inactive: -7.32%
CCOC(=O)NC(Sc1ccccc1)C(Cl)(Cl)Cl (stereo not drawn)	inactive: 50.9%
CCNC(=S)/N=C(\N)N[N+](=O)[O-]	inactive: -3.79%

Compound	inhibition
O=C(NC1CCS(=O)(=O)C1)NP(=S)(Oc1ccccc1)Oc1ccccc1 (stereo not drawn)	inactive: 0.976%
Cc1ccccc1OP(=O)(Nc1ccccn1)Oc1ccccc1C	inactive: 1.83%
CC(NC(=O)COC(=O)C(O)(c1ccccc1)c1ccccc1)c1ccccc1 (stereo not drawn)	inactive: -3.71%
CN(C)C(=O)Oc1noc2ccccc12	inactive: -1.44%
CCCCCOc1ccc(NP(C)(=O)Oc2ccc(Cl)cc2Cl)cc1 (stereo not drawn)	inactive: -6.48%
CP(=O)(Nc1ccccc1)Oc1ccc(F)cc1 (stereo not drawn)	inactive: -15.1%
O=C(OC1CN2CCC1CC2)c1ccccc1 (stereo not drawn)	inactive: -27.5%
CCN(CC)CCCOC(=O)C(O)(c1ccccc1)C1CCCCC1 (stereo not drawn)	inactive: -8.8%
CCC(=O)N1C2C3N(C(=O)CC)C1C1N(C(=O)CC)C(C(N1C(=O)CC)N3C(=O)CC)N2C(=O)CC	inactive: -3.4%
COC(=O)c1cc2c(s1)N=C(c1ccccc1)N(C)P2(=O)N1CCOCC1 (stereo not drawn)	inactive: -12.6%
Cc1ccc(OP(=O)(Nc2ccccn2)Oc2ccc(C)cc2)cc1	inactive: -2.36%
COc1ccc(OP(C)(=O)Nc2ccccc2Br)cc1 (stereo not drawn)	inactive: -5.87%
CCOP(=O)(Nc1ccccc1)OCC	inactive: 0.652%
Cc1cc(SC(NC(=O)c2ccc(F)cc2)C(Cl)(Cl)Cl)ncn1 (stereo not drawn)	inactive: 34%
Cc1ccc(NP(=O)(Oc2ccccc2F)Oc2ccccc2F)nc1	inactive: -5.8%
COc1ccccc1OP(C)(=O)Nc1ccc(C)c(C)c1 (stereo not drawn)	inactive: 1.09%
Cc1cc(C)cc(OP(C)(=O)Nc2cccc(C(F)(F)F)c2)c1 (stereo not drawn)	inactive: -4.87%
O=P(Nc1nc2ccc(Cl)cc2s1)(c1ccccc1)c1ccccc1	inactive: -2.81%
Nc1cccc2ccc([As](=O)(O)O)cc12	inactive: -31.6%
CP(=O)(OCCOc1ccccc1)OCCOc1ccccc1	inactive: -2.5%
CP(=O)(Nc1ccc(Cl)cc1Cl)Oc1ccccc1 (stereo not drawn)	inactive: -4.06%
CCN(N=Nc1nonc1N)c1nonc1N	inactive: -3.31%
O=[N+]([O-])c1cc([N+](=O)[O-])c(CCN2CCOCC2)c([N+](=O)[O-])c1	inactive: 30.9%
